A word on the Kd: it is the free concentration of one partner at which half of the binding sites on the other are occupied at equilibrium, for simple one-to-one binding. Low readings indicate higher affinity, high ones lower affinity.

Protein sequences, listed by entry. Tags and fused reporters are not part of them. Residues count along the entry.
UniProt Q9ULR3, 38-514, stated change not applied: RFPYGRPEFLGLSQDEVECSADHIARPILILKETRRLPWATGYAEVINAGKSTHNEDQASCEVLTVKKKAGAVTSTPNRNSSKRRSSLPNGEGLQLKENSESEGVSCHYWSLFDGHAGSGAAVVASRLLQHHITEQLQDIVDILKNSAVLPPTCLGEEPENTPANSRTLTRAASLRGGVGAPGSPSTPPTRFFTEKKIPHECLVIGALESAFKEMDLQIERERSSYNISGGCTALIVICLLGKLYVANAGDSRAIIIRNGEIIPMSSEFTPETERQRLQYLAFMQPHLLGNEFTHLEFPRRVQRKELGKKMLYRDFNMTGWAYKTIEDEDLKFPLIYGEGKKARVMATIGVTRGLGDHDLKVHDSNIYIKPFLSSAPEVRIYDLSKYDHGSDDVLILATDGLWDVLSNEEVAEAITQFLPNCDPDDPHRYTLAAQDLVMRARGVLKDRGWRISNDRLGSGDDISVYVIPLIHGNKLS
UniProt Q9ULR3, whole entry L66R: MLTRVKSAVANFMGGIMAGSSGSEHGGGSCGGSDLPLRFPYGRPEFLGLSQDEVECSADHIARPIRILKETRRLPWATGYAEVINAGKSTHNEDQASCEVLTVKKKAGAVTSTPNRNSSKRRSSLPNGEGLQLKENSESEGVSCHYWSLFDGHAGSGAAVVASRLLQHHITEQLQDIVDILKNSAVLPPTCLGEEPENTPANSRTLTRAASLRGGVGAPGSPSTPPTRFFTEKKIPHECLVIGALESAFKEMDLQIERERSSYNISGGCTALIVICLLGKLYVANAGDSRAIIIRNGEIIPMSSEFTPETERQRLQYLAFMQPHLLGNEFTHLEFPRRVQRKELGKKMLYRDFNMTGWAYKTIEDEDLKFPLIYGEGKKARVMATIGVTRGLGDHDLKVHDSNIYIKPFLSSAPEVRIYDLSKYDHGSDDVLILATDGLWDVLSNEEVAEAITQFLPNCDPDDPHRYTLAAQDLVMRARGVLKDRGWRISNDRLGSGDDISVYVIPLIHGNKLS

Our source for the Kd values is publication doi:10.1101/2025.05.16.654599 (bioRxiv, 2025).

One test has as its target mNeon Δ37 PPM1H (human) (UniProt Q9ULR3). As to the kind of experiment: MST; unlabeled Rab titrated (16 serial dilutions) against 100 nM fluorescent mNeon PPM1H form; Monolith NT.115; 30 min in the dark in a reaction buffer; 3 independent measurements with different protein preparations.
Another test deals with mNeon L66R PPM1H (human) (UniProt Q9ULR3). The test is described as above.

Take “His Rab8A (Q67L) full length (from UniProt P61006 1-207) (natural protein)”: the equilibrium dissociation constant (Kd) in the test with mNeon Δ37 PPM1H (human) was determined as 10.5 µM; in the test with mNeon L66R PPM1H (human), 5.2 µM.

On to “thio-phosphorylated Rab8A (from UniProt P61006 1-207) (natural protein)”, for which the Kd with mNeon L66R PPM1H (human) came out at 1.1 µM.

The substance “Rab12 (Q101L) full length (from UniProt Q6IQ22-2 1-244) (natural protein)” gave a dissociation constant (Kd) in the test with mNeon L66R PPM1H (human) of 9.6 µM.
